{"source": "patent US12704493B2", "about": "(priority 2020, dated 2026)", "test_system": "electroactive microorganisms of the biosensor anode", "data": [{"substance": "chlorine", "values": [{"measurement": "recovery of biosensor voltage after return to clean tap water", "setting": "after contamination was cleared, switched back to tap water", "value": "restored to a constant plateau"}, {"measurement": "change of open circuit voltage of the biosensor", "setting": "chlorine raised from 0.03 mg/L to 3 mg/L over 4 hours in tap water", "value": "decreased"}]}]}
